# PubChem BioAssay AID2690 (NMMLSC, 2010)
# The entries are a selection whose mix differs from that of the whole data set. Calls of active or inactive are those of the source.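 How the source made its calls: active means superoxide response under a set limit, about three screen SD below normal (cut at about 65% in these data); inactive means the rest.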
# Test: reduction of superoxide in aged yeast, primary screen, HTS (AID 2690);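 further: yeast aged for seven days with compound at 30 °C before DHE staining; 100% = average MFI of all compound-treated wells on the plate with controls excluded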
# Conditions: S. cerevisiae aged cells, superoxide DHE fluorescence; at 10 µM; stronger effect = lower value
row,SMILES,superoxide response (% of plate mean)
1,Cc1cccc(C)c1OP(C)(N)=O (stereo unspecified),inactive: 88.5%
2,CC(C)(C)c1ccc(OP(C)(=O)Nc2ccc(SC(F)(F)F)cc2)cc1 (stereo unspecified),inactive: 105%
3,Cc1ccc(NP(C)(=O)Oc2ccccc2)c(C)c1 (stereo unspecified),inactive: 93.1%
4,COc1ccccc1OP(C)(=O)Nc1ccc(C)cc1 (stereo unspecified),inactive: 102%
5,CCOC(=O)c1ccc(NP(C)(=O)Oc2ccccc2)cc1 (stereo unspecified),inactive: 97.5%
6,Cc1cc(C)cc(OP(C)(N)=O)c1 (stereo unspecified),inactive: 132%
7,COc1ccc(OP(C)(=O)Nc2cccc(F)c2)cc1 (stereo unspecified),inactive: 92.3%
8,COc1ccccc1OP(C)(=O)Nc1cc(Cl)ccc1C (stereo unspecified),inactive: 104%
9,CCN(CC)CCCOC(=O)C(O)(c1ccccc1)c1ccccc1,inactive: 91.2%
10,COc1ccccc1OP(C)(=O)Nc1cccc(Br)c1 (stereo unspecified),inactive: 83.8%
11,CCOC(=O)c1ccc(NP(C)(=O)Oc2cc(C)cc(C)c2)cc1 (stereo unspecified),inactive: 101%
12,Cc1cc(C)cc(OP(C)(=O)Nc2ccc(C)cc2C)c1 (stereo unspecified),inactive: 106%
13,Cc1ccc(C)c(NP(C)(=O)Oc2ccccc2)c1 (stereo unspecified),inactive: 91%
14,CP(=O)(Nc1cccc(Br)c1)Oc1ccccc1 (stereo unspecified),inactive: 91%
15,Cc1cc(C)cc(OP(C)(=O)Nc2ccccn2)c1 (stereo unspecified),inactive: 86.3%
16,O=C(O)c1cccc(Nc2c([N+](=O)[O-])cc([N+](=O)[O-])cc2[N+](=O)[O-])c1,inactive: 118%
17,CC1=NCCc2c1[nH]c1ccccc21.O=[N+]([O-])c1cc([N+](=O)[O-])c(O)c([N+](=O)[O-])c1,inactive: 104%
18,CCOC(=O)C(CC)C1=NC(C)(C)Cc2ccccc21.O=[N+]([O-])c1cc([N+](=O)[O-])c(O)c([N+](=O)[O-])c1 (stereo unspecified),inactive: 119%
19,O=[N+]([O-])c1cc([N+](=O)[O-])c(Nc2nnnn2CCO)c([N+](=O)[O-])c1,inactive: 122%
20,CC1=C2N=C(C=C3N=C(C(C)=C4[N-][C@@](C)([C@@H]5N=C1[C@](C)(CCC(=O)NC[C@@H](C)OP(=O)([O-])O[C@H]1[C@@H](O)[C@@H](n6cnc7cc(C)c(C)cc76)O[C@@H]1CO)[C@H]5CC(N)=O)[C@@](C)(CC(N)=O)[C@@H]4CCC(N)=O)[C@@](C)(CC(N)=O)[C@@H]3CCC(N)=O)C(C)(C)[C@@H]2CCC(N)=O.[C-]#N.[Co+3],inactive: 97.3%
21,CN1CCCCC1COC(=O)C1(O)c2ccccc2CCc2ccccc21 (stereo unspecified),inactive: 106%
22,COc1ccccc1OP(C)(=O)Nc1c(C)cccc1C (stereo unspecified),inactive: 111%
23,CP(=O)(Nc1ccc(SC(F)(F)F)cc1)Oc1ccccc1 (stereo unspecified),inactive: 91.9%
24,CCCOc1ccc(NP(C)(=O)Oc2ccc(Cl)cc2)cc1 (stereo unspecified),inactive: 100%
25,O=[N+]([O-])c1cc([N+](=O)[O-])c(-n2nnc3ccccc32)c([N+](=O)[O-])c1,inactive: 116%
26,Cc1nc2ccc3ccccc3c2s1.O=[N+]([O-])c1cc([N+](=O)[O-])c(O)c([N+](=O)[O-])c1,inactive: 134%
